# Tests used:
# By UniProt entry, the sequences of proteins in these tests, tags left out. Where a name states a change or a piece, a line headed by the entry shows the natural chain unless it says otherwise.
# UniProt Q9H3Y6: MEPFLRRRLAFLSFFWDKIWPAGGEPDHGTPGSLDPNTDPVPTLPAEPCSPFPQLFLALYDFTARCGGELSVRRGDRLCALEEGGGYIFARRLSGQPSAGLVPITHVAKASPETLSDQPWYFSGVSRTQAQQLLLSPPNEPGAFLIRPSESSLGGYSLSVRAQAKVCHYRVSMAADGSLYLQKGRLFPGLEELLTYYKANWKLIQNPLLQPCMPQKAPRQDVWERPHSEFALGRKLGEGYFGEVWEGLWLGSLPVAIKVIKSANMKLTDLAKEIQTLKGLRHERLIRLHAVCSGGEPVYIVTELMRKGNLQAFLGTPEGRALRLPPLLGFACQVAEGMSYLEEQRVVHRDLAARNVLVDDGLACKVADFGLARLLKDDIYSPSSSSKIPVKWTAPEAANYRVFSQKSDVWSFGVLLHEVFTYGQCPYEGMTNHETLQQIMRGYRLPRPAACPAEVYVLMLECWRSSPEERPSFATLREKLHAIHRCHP
# UniProt O94804: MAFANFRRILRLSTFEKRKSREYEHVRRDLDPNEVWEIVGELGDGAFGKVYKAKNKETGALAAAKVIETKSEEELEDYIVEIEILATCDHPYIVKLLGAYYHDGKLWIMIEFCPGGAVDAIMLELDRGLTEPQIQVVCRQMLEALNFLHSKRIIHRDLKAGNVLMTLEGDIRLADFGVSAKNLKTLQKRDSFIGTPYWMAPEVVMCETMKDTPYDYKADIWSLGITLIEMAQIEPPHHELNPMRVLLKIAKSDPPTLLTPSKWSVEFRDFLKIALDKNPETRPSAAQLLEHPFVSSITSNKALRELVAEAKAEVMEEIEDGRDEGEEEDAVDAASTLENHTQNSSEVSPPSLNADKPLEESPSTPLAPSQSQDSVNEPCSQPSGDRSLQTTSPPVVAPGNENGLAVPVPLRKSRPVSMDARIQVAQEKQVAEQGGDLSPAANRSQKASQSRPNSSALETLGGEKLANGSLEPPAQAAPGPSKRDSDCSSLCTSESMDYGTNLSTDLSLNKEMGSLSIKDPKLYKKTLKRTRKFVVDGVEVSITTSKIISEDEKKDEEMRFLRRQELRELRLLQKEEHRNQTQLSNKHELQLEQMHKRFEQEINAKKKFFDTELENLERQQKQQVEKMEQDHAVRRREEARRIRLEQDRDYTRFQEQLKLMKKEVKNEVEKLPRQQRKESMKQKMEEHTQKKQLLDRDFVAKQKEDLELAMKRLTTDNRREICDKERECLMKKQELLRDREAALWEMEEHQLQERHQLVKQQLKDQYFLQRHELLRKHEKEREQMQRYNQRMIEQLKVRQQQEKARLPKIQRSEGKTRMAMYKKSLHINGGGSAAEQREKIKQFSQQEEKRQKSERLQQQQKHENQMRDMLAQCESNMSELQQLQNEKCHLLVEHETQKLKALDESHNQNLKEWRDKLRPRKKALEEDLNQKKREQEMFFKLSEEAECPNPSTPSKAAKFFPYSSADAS
# UniProt P42681: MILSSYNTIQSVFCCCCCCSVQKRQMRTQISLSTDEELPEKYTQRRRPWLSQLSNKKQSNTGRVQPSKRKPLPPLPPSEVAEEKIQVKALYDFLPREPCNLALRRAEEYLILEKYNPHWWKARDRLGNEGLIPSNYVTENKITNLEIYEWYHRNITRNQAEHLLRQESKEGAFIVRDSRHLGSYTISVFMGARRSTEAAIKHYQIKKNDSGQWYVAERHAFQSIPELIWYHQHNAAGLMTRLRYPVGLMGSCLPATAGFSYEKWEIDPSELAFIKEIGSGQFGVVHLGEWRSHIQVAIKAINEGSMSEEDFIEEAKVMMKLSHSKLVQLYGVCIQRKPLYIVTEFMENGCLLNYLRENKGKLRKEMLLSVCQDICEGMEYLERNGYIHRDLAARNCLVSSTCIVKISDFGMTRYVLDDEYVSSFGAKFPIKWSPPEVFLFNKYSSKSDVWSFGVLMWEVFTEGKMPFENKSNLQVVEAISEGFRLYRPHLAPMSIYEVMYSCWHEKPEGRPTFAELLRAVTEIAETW
# UniProt Q8NE63: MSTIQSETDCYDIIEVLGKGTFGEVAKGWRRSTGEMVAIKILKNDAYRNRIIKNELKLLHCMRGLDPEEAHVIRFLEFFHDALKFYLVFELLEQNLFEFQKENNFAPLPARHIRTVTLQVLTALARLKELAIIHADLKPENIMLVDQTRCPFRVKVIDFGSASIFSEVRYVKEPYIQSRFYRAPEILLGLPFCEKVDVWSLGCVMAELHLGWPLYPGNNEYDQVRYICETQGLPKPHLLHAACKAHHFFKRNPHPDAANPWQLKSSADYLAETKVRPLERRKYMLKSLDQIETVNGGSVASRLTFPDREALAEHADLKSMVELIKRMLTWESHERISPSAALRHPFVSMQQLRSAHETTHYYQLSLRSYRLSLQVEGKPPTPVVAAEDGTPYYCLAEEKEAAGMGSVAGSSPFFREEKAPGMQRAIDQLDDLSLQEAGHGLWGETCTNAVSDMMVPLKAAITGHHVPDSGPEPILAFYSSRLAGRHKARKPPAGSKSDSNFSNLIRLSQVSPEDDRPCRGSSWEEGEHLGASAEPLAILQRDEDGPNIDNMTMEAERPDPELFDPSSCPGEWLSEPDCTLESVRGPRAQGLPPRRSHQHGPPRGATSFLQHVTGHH
# UniProt P35626: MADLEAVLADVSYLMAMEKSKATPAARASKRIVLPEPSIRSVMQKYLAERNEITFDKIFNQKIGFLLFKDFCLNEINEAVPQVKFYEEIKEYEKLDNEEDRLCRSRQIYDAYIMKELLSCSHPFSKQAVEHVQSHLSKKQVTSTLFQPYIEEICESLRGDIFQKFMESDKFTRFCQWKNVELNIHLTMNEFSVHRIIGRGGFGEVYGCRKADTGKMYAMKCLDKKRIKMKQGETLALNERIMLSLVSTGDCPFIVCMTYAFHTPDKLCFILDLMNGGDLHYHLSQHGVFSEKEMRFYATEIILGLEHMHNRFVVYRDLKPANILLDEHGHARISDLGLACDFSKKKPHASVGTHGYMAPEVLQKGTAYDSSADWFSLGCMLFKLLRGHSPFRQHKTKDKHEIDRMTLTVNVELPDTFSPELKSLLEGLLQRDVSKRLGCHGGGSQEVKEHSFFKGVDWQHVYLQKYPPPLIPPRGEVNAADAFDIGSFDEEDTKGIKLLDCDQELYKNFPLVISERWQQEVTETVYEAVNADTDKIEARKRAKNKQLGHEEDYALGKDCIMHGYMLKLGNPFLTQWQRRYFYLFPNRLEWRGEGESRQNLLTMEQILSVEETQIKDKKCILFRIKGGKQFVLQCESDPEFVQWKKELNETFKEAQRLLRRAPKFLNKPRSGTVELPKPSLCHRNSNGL
# UniProt P07947, whole entry, looked up: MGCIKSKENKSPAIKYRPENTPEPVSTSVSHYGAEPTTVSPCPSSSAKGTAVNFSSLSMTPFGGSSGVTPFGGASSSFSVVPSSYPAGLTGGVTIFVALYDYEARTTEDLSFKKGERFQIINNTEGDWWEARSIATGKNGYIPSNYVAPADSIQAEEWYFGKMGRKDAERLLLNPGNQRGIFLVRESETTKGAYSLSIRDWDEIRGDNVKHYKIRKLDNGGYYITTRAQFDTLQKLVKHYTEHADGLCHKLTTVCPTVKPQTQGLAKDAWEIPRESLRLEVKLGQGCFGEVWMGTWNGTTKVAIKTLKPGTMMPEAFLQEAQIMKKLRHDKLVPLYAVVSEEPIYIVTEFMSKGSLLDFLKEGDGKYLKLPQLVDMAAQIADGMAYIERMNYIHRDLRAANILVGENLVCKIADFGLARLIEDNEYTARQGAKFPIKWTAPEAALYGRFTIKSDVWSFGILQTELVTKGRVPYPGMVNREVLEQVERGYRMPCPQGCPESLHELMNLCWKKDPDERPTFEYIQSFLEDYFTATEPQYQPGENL
# UniProt P08069, whole entry, looked up: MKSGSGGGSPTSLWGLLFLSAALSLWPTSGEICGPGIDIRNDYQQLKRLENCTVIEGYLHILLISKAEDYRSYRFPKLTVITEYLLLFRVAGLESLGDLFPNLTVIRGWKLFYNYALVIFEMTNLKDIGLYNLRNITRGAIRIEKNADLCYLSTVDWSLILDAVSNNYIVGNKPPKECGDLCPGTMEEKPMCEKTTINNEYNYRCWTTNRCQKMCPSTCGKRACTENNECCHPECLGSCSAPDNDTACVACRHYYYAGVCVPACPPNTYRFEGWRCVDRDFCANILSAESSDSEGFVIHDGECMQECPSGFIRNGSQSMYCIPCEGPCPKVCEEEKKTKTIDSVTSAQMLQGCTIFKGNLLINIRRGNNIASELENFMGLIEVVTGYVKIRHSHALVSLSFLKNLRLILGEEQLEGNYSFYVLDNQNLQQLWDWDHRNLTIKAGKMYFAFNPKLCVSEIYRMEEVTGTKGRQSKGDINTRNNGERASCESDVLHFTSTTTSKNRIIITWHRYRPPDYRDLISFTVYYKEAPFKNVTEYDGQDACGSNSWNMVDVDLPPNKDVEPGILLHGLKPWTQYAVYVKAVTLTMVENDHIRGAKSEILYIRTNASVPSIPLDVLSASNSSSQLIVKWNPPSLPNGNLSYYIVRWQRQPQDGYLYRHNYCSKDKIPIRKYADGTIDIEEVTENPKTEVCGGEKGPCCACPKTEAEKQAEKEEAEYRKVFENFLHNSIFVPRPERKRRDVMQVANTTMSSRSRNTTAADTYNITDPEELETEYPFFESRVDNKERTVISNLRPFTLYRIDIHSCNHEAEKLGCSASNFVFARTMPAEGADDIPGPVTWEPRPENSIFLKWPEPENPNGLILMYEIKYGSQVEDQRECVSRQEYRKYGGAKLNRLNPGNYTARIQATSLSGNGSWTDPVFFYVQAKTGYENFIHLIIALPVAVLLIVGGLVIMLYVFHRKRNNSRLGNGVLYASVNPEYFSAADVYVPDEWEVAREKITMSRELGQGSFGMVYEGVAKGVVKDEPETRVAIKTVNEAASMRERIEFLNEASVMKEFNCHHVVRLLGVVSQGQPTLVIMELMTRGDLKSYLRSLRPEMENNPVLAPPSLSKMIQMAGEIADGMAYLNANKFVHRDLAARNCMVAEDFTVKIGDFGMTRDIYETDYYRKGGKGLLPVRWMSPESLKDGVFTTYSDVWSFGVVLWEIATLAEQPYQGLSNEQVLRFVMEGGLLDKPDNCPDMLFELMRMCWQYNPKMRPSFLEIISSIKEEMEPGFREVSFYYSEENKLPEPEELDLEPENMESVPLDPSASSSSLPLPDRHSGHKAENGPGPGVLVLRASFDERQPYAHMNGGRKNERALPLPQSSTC
# UniProt Q6P2M8: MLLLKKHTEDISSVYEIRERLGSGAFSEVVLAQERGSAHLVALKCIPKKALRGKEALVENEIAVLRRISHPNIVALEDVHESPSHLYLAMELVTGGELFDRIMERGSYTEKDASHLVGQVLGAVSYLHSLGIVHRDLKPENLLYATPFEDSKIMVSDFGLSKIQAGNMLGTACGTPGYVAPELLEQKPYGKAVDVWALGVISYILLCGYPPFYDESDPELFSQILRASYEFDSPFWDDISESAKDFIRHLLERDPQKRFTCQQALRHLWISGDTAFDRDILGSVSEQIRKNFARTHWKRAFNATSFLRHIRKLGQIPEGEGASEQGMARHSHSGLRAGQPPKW
# UniProt Q15208: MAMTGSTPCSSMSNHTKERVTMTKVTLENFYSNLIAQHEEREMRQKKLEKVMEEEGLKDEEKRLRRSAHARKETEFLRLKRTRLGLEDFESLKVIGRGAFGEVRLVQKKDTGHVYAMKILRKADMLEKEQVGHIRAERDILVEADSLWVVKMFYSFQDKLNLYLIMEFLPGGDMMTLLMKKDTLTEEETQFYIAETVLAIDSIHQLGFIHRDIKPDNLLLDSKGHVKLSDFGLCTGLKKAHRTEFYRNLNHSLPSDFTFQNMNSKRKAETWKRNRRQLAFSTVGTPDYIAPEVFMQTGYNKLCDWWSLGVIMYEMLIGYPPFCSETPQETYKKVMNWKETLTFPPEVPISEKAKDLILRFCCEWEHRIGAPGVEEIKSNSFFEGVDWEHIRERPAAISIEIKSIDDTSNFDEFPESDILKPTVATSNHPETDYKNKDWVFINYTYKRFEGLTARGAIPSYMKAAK
# UniProt P28482, whole entry, looked up: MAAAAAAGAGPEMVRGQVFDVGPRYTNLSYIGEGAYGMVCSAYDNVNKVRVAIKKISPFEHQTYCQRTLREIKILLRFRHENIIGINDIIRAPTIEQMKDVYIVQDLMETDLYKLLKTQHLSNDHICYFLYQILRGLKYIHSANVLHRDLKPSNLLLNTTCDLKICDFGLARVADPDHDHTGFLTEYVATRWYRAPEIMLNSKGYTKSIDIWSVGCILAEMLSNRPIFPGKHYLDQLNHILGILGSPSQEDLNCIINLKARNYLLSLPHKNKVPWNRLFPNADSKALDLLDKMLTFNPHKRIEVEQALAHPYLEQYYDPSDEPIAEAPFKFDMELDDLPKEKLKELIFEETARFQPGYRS
# Test in all cases: radiometric filter-binding kinase assay, Kinase HotSpot
# Settings in all cases: compound 0.5 µM; ATP 10 µM
# IKBKB (human) = IKBKB (human) (UniProt O14920)
# GRK4 (human) = GRK4 (human) (UniProt P32298)
# LIMK1 (human) = LIMK1 (human) (UniProt P53667)
# SRMS (human) = SRMS (human) (UniProt Q9H3Y6)
# BRAF (human) = BRAF (human) (UniProt P15056)
# MAPK12 (human) = MAPK12 (human) (UniProt P53778)
# PTK2 (human) = PTK2 (human) (UniProt Q05397)
# PAK2 (human) = PAK2 (human) (UniProt Q13177)
# ERBB4 (human) = ERBB4 (human) (UniProt Q15303)
# NEK2 (human) = NEK2 (human) (UniProt P51955)
# STK10 (human) = STK10 (human) (UniProt O94804)
# EPHB3 (human) = EPHB3 (human) (UniProt P54753)
# MYO3B (human) = MYO3B (human) (UniProt Q8WXR4)
# CAMK1G (human) = CAMK1G (human) (UniProt Q96NX5)
# HIPK1 (human) = HIPK1 (human) (UniProt Q86Z02)
# TXK (human) = TXK (human) (UniProt P42681)
# MAP2K1 (human) = MAP2K1 (human) (UniProt Q02750)
# JAK3 JH1 JH2 (human) = JAK3 JH1 JH2 (human) (UniProt P52333)
# SGK3 (human) = SGK3 (human) (UniProt Q96BR1)
# PRKCI (human) = PRKCI (human) (UniProt P41743)
# PKN1 (human) = PKN1 (human) (UniProt Q16512)
# SRC (human) = SRC (human) (UniProt P12931)
# RAF1 (human) = RAF1 (human) (UniProt P04049)
# HIPK4 (human) = HIPK4 (human) (UniProt Q8NE63)
# MAPK14 (human) = MAPK14 (human) (UniProt Q16539)
# ADRBK2 (human) = ADRBK2 (human) (UniProt P35626)
# YES1 (human) = YES1 (human) (UniProt P07947)
# MAPKAPK5 (human) = MAPKAPK5 (human) (UniProt Q8IW41)
# CDC42BPA (human) = CDC42BPA (human) (UniProt Q5VT25)
# MAPK13 (human) = MAPK13 (human) (UniProt O15264)
# MAP3K2 (human) = MAP3K2 (human) (UniProt Q9Y2U5)
# CLK1 (human) = CLK1 (human) (UniProt P49759)
# HCK (human) = HCK (human) (UniProt P08631)
# IGF1R (human) = IGF1R (human) (UniProt P08069)
# AURKB (human) = AURKB (human) (UniProt Q96GD4)
# PLK3 (human) = PLK3 (human) (UniProt Q9H4B4)
# PNCK (human) = PNCK (human) (UniProt Q6P2M8)
# STK38 (human) = STK38 (human) (UniProt Q15208)
# TGFBR1 (human) = TGFBR1 (human) (UniProt P36897)
# PRKCZ (human) = PRKCZ (human) (UniProt Q05513)
# MAPK1 (human) = MAPK1 (human) (UniProt P28482)
# MELK (human) = MELK (human) (UniProt Q14680)
smiles,measurement,setting,value
O=C1Nc2ccc3ncsc3c2/C1=C/c1c[nH]cn1,residual activity,IKBKB (human),70.2%
same,residual activity,GRK4 (human),86.9%
same,residual activity,LIMK1 (human),61.3%
same,residual activity,SRMS (human),96.9%
same,residual activity,BRAF (human),100%
same,residual activity,MAPK12 (human),92.2%
same,residual activity,PTK2 (human),71.4%
same,residual activity,PAK2 (human),82.8%
same,residual activity,ERBB4 (human),94.8%
same,residual activity,NEK2 (human),77.2%
same,residual activity,STK10 (human),38%
same,residual activity,EPHB3 (human),86%
same,residual activity,MYO3B (human),30.9%
same,residual activity,CAMK1G (human),102%
same,residual activity,HIPK1 (human),103%
same,residual activity,TXK (human),70.1%
same,residual activity,MAP2K1 (human),87.2%
same,residual activity,JAK3 JH1 JH2 (human),20.6%
same,residual activity,SGK3 (human),81.2%
same,residual activity,PRKCI (human),80.3%
same,residual activity,PKN1 (human),22%
same,residual activity,SRC (human),78.1%
same,residual activity,RAF1 (human),104%
same,residual activity,HIPK4 (human),87.8%
same,residual activity,MAPK14 (human),93.9%
same,residual activity,ADRBK2 (human),97.3%
same,residual activity,YES1 (human),54.3%
same,residual activity,MAPKAPK5 (human),74.4%
same,residual activity,CDC42BPA (human),94.2%
same,residual activity,MAPK13 (human),90.4%
same,residual activity,MAP3K2 (human),77.3%
same,residual activity,CLK1 (human),19.9%
same,residual activity,HCK (human),73.9%
same,residual activity,IGF1R (human),97.5%
same,residual activity,AURKB (human),11.1%
same,residual activity,PLK3 (human),86.7%
same,residual activity,PNCK (human),99.6%
same,residual activity,STK38 (human),51%
same,residual activity,TGFBR1 (human),103%
same,residual activity,PRKCZ (human),83.2%
same,residual activity,MAPK1 (human),28.8%
same,residual activity,MELK (human),4.74%

# Source: the kinase profiling compilation of Christmann-Franck et al. (2016)
